Measurements reported in patent US20260382633A1, “KRAS INHIBITORS” (published 2026).

Sequences of proteins named here, by UniProt entry; tags and fusion partners are left off. A line that says so, or that is headed by a name, gives the form on record, which may keep a tag or linker. Residues count along the entry.
UniProt P01116, 1-188 with tags or gaps G12D: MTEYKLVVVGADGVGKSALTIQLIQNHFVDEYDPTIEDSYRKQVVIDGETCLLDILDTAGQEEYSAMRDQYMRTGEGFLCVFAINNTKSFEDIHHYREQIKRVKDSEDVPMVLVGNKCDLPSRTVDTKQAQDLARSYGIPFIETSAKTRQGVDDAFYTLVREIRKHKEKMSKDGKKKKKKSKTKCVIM

What was measured:
[1] = system: GP2d cells (KRAS G12D); assay: Cellular Proliferation Assay in GP2d Cells (KRAS G12D), CellTiter-Glo; conditions: read-out: GP2d IC50, 72 hours
[2] = molecular target: p-ERK in AGS cells (Homo sapiens, UniProt P01116, G12D); assay: p-ERK Assay in AGS cells; conditions: read-out: IC50 (p-ERK), 3 h at 37 °C
[3] = Mouse Pharmacokinetic Study; conditions: single, fed; for AUCinf / AUClast / MRTinf / Vss / T1/2 / Cmax: plasma; for T1/2: terminal half-life
[4] = system: SW620 cells (KRAS G12V); assay: Cellular proliferation assay in SW620 cells (KRAS G12V), CTG cell viability; conditions: read-out: SW620 IC50, 3 days

C#Cc1c(F)ccc2cc(O)cc(-c3ncc4c(N5CC6CCC(C5)N6)nc(OC[C@@]56CC7(CC7)CN5C[C@H]5C[C@H]56)nc4c3F)c12 (single isomer, unassigned)
IC50 [1]: 8 nM
IC50 [2]: 2 nM

C#Cc1c(F)ccc2cc(N)cc(-c3ncc4c(N5CC6CCC(C5)N6)nc(OC[C@]56CCCN5[C@@H]5C[C@@H]5C6)nc4c3F)c12
IC50 [1]: 200 nM
IC50 [2]: 171 nM

C#Cc1c(F)ccc2cc(O)cc(-c3ncc4c(N5CC6CCC(C5)N6)nc(OC[C@@]56CCCN5C[C@H]5C[C@H]56)nc4c3F)c12
IC50 [1]: 6.5 nM
AUCinf ([3]; IV 2 mpk): 1190 ng·h/mL
AUClast ([3]; IV 2 mpk): 1130 ng·h/mL
MRTinf ([3]; IV 2 mpk): 3.90 h
Vss ([3]; IV 2 mpk): 6.57 L/kg
T1/2 ([3]; IV 2 mpk): 10.8 h
F % ([3]; PO 10 mpk): 0.8%
AUCinf ([3]; PO 10 mpk): 46.9 ng·h/mL
AUClast ([3]; PO 10 mpk): 43 ng·h/mL
Cmax ([3]; PO 10 mpk): 15.8 ng/mL
MRTinf ([3]; PO 10 mpk): 3.08 h
T1/2 ([3]; PO 10 mpk): 2.44 h

C#Cc1c(F)ccc2cc(N)cc(-c3ncc4c(N5C[C@H]6CC[C@@H](C5)N6)nc(OC[C@]56CCCN5C[C@H]5C[C@H]56)nc4c3F)c12 (racemic)
IC50 [1]: 20 nM
IC50 [2]: 67 nM

C#Cc1c(F)ccc2cc(O)cc(-c3ncc4c(N5CC6CCC(C5)N6)nc(OC[C@]56CCCN5[C@H]5C[C@H]5C6)nc4c3F)c12
IC50 [1]: 151 nM

C#Cc1c(F)ccc2cc(O)cc(-c3ncc4c(N5CCCC(F)(F)C5)nc(OC[C@@]56CC(=C)CN5C[C@H]5C[C@H]56)nc4c3F)c12
IC50 [4]: 529 nM
IC50 [1]: 115 nM

C#Cc1c(F)ccc2cc(O)cc(-c3ncc4c(N5C[C@H]6CC[C@@H](C5)N6)nc(OC[C@]56CCCN5[C@@H]5C[C@@H]5C6)nc4c3F)c12
IC50 [1]: 13 nM

C#Cc1c(F)ccc2cc(O)cc(-c3ncc4c(N5CCC[C@@](C)(O)C5)nc(OC[C@@]56CC(=C)CN5C[C@H]5C[C@H]56)nc4c3F)c12
IC50 [4]: 213 nM
IC50 [1]: 55 nM

C#Cc1c(F)ccc2cc(N)cc(-c3ncc4c(N5CC6CCC(C5)N6)nc(OC[C@@]56CCCN5C[C@H]5C[C@H]56)nc4c3F)c12
IC50 [1]: 25 nM
IC50 [2]: 11 nM

C#Cc1c(F)ccc2cc(O)cc(-c3ncc4c(N5CCC6CC6C5)nc(OC[C@@]56CCCN5C[C@H]5C[C@H]56)nc4c3F)c12 (some centres unmarked)
IC50 [4]: 3070 nM
IC50 [1]: 893 nM

C#Cc1c(F)ccc2cc(O)cc(-c3ncc4c(N5C[C@H]6CC[C@@H](C5)N6)nc(OC[C@]56CCCN5C[C@H]5C[C@H]56)nc4c3F)c12 (racemic)
IC50 [1]: 6.5 nM

[2H]C([2H])([2H])N(c1nc(OC[C@@]23CC(=C)CN2C[C@H]2C[C@H]23)nc2c(F)c(-c3cc(O)cc4ccc(F)c(C#C)c34)ncc12)[C@@H]1C[C@H]1F
IC50 [4]: 163 nM
IC50 [1]: 347 nM

C#Cc1c(F)ccc2cc(O)cc(-c3ncc4c(N5CC6CCC(C5)N6)nc(OC[C@]56CC7(CC7)CN5C[C@H]5C[C@H]56)nc4c3F)c12
IC50 [1]: 160 nM
IC50 [2]: 60 nM

[2H]C([2H])([2H])N(c1nc(OC[C@@]23CCCN2C[C@H]2C[C@H]23)nc2c(F)c(-c3cc(O)cc4ccc(F)c(C#C)c34)ncc12)[C@@H]1C[C@H]1F
IC50 [4]: 301 nM
IC50 [1]: 531 nM
AUCinf ([3]; IV 2 mpk): 8270 ng·h/mL
AUClast ([3]; IV 2 mpk): 8250 ng·h/mL
MRTinf ([3]; IV 2 mpk): 1.19 h
Vss ([3]; IV 2 mpk): 0.289 L/kg
T1/2 ([3]; IV 2 mpk): 1.11 h
F % ([3]; PO 5 mpk): 7.4%
AUCinf ([3]; PO 5 mpk): 1530 ng·h/mL
AUClast ([3]; PO 5 mpk): 1520 ng·h/mL
Cmax ([3]; PO 5 mpk): 958 ng/mL
MRTinf ([3]; PO 5 mpk): 2.12 h
T1/2 ([3]; PO 5 mpk): 1.47 h

C#Cc1c(F)ccc2cc(O)cc(-c3ncc4c(N5CCOCC6CC65)nc(OC[C@@]56CCCN5C[C@H]5C[C@H]56)nc4c3F)c12 (some centres unmarked)
IC50 [4]: 265 nM
IC50 [1]: 844 nM

C#Cc1c(F)ccc2cc(O)cc(-c3ncc4c(N5CC6CCC(C5)N6)nc(OC[C@@]56CC(C)CN5C[C@H]5C[C@H]56)nc4c3F)c12 (single isomer, unassigned)
IC50 [1]: 118 nM
IC50 [2]: 146 nM

C#Cc1c(F)ccc2cc(O)cc(-c3ncc4c(N5CC6CCC(C5)N6)nc(OC[C@]56CC(=C)CN5C[C@H]5C[C@H]56)nc4c3F)c12 (single isomer, unassigned)
IC50 [1]: 31 nM
IC50 [2]: 31 nM

C#Cc1c(F)ccc2cc(O)cc(-c3ncc4c(N5C[C@H]6CC[C@@H](C5)N6)nc(OC[C@@]56CCCN5[C@@H]5C[C@@H]5C6)nc4c3F)c12
IC50 [1]: 19 nM

C#Cc1c(F)ccc2cc(O)cc(-c3ncc4c(N5CCC=C(F)C5)nc(OC[C@@]56CC(=C)CN5C[C@H]5C[C@H]56)nc4c3F)c12
IC50 [4]: 192 nM
IC50 [1]: 85 nM

Nc1cc(Cl)c(C(F)(F)F)c(-c2ncc3c(N4CC5CCC(C4)N5)nc(OC[C@]45CCCN4[C@@H]4C[C@@H]4C5)nc3c2F)c1
IC50 [1]: 112 nM
IC50 [2]: 107 nM

C#Cc1c(F)ccc2cc(O)cc(-c3ncc4c(N5CCCOCC5)nc(OC[C@@]56CC(=C)CN5C[C@H]5C[C@H]56)nc4c3F)c12
IC50 [4]: 38 nM
IC50 [1]: 74 nM

[2H]C([2H])([2H])N(c1nc(OC[C@@]23CC4(CC4)CN2C[C@H]2C[C@H]23)nc2c(F)c(-c3cc(O)cc4ccc(F)c(C#C)c34)ncc12)[C@@H]1C[C@H]1F
IC50 [4]: 464 nM
IC50 [1]: 472 nM

C#Cc1c(F)ccc2cc(O)cc(-c3ncc4c(N(C)[C@@H]5C[C@H]5F)nc(OC[C@@]56CCCN5C[C@H]5C[C@H]56)nc4c3F)c12
IC50 [4]: 250 nM
IC50 [1]: 404 nM
AUCinf ([3]; IV 2 mpk): 6440 ng·h/mL
AUClast ([3]; IV 2 mpk): 6430 ng·h/mL
MRTinf ([3]; IV 2 mpk): 1.01 h
Vss ([3]; IV 2 mpk): 0.313 L/kg
T1/2 ([3]; IV 2 mpk): 1.09 h
F % ([3]; PO 5 mpk): 7.3%
AUCinf ([3]; PO 5 mpk): 1180 ng·h/mL
AUClast ([3]; PO 5 mpk): 1160 ng·h/mL
Cmax ([3]; PO 5 mpk): 600 ng/mL
MRTinf ([3]; PO 5 mpk): 2.01 h
T1/2 ([3]; PO 5 mpk): 1.49 h

C#Cc1c(F)ccc2cc(O)cc(-c3ncc4c(N5CCCOCC5)nc(OC[C@@]56CC7(CC7)CN5C[C@H]5C[C@H]56)nc4c3F)c12
IC50 [4]: 191 nM
IC50 [1]: 149 nM

C#Cc1c(F)ccc2cc(O)cc(-c3ncc4c(N5CC6CCC(C5)N6)nc(OC[C@]56CC(=C)CN5[C@@H]5C[C@@H]5C6)nc4c3F)c12
IC50 [1]: 43 nM
IC50 [2]: 33 nM

C#Cc1c(F)ccc2cc(O)cc(-c3ncc4c(N5CCC=C(F)C5)nc(OC[C@@]56CC7(CC7)CN5C[C@H]5C[C@H]56)nc4c3F)c12
IC50 [4]: 403 nM
IC50 [1]: 391 nM

Oc1cc(Cl)c(C(F)(F)F)c(-c2ncc3c(N4C[C@H]5CC[C@@H](C4)N5)nc(OC[C@]45CCCN4[C@@H]4C[C@@H]4C5)nc3c2F)c1
IC50 [1]: 1220 nM
IC50 [2]: 772 nM

C#Cc1c(F)ccc2cc(O)cc(-c3ncc4c(N5CC6CCC(C5)N6)nc(OC[C@@]56CCCN5[C@H]5C[C@H]5C6)nc4c3F)c12
IC50 [1]: 17 nM

C#Cc1c(F)ccc2cc(O)cc(-c3ncc4c(N5CC6CCC(C5)N6)nc(OC[C@]56CCCN5C[C@@H]5C[C@@H]56)nc4c3F)c12
IC50 [1]: 3.7 nM

C#Cc1c(F)ccc2cc(O)cc(-c3ncc4c(N5CC6CCC(C5)N6)nc(OC[C@@]56CCCN5C[C@H]5C[C@H]56)nc4c3OC)c12
IC50 [1]: 160 nM
IC50 [2]: 49 nM

C#Cc1c(F)ccc2cc(O)cc(-c3ncc4c(N(C)[C@@H]5C[C@H]5F)nc(OC[C@@]56CC(=C)CN5C[C@H]5C[C@H]56)nc4c3F)c12
IC50 [4]: 177 nM
IC50 [1]: 361 nM
IC50 [2]: 213 nM

C#Cc1c(F)ccc2cc(O)cc(-c3ncc4c(N5CCC=C(F)C5)nc(OC[C@@]56CCCN5C[C@H]5C[C@H]56)nc4c3F)c12
IC50 [4]: 238 nM
IC50 [1]: 23 nM
AUCinf ([3]; IV 2 mpk): 6960 ng·h/mL
AUClast ([3]; IV 2 mpk): 6950 ng·h/mL
MRTinf ([3]; IV 2 mpk): 0.700 h
Vss ([3]; IV 2 mpk): 0.201 L/kg
T1/2 ([3]; IV 2 mpk): 0.973 h
F % ([3]; PO 5 mpk): 1.7%
AUCinf ([3]; PO 5 mpk): 290 ng·h/mL
AUClast ([3]; PO 5 mpk): 280 ng·h/mL
Cmax ([3]; PO 5 mpk): 280 ng/mL
MRTinf ([3]; PO 5 mpk): 2.17 h
T1/2 ([3]; PO 5 mpk): 2.16 h

C#Cc1c(F)ccc2cc(O)cc(-c3ncc4c(N5CCC[C@@](C)(O)C5)nc(OC[C@@]56CCCN5C[C@H]5C[C@H]56)nc4c3F)c12
IC50 [4]: 441 nM
IC50 [1]: 58 nM

C#Cc1c(F)ccc2cc(O)cc(-c3ncc4c(N(C)C5CC5)nc(OC[C@@]56CCCN5C[C@H]5C[C@H]56)nc4c3F)c12
IC50 [4]: 995 nM
IC50 [1]: 932 nM

C#Cc1c(F)ccc2cc(O)cc(-c3ncc4c(N5CCCOCC5)nc(OCC56CCCN5C[C@H]5C[C@H]56)nc4c3F)c12 (some centres unmarked)
IC50 [4]: 52 nM
IC50 [1]: 63 nM
IC50 [2]: 13 nM
AUCinf ([3]; IV 2 mpk): 2460 ng·h/mL
AUClast ([3]; IV 2 mpk): 2460 ng·h/mL
MRTinf ([3]; IV 2 mpk): 0.491 h
Vss ([3]; IV 2 mpk): 0.399 L/kg
T1/2 ([3]; IV 2 mpk): 1.00 h
F % ([3]; PO 5 mpk): 3.5%
AUCinf ([3]; PO 5 mpk): 213 ng·h/mL
AUClast ([3]; PO 5 mpk): 204 ng·h/mL
Cmax ([3]; PO 5 mpk): 350 ng/mL
MRTinf ([3]; PO 5 mpk): 2.17 h
T1/2 ([3]; PO 5 mpk): 2.34 h

C#Cc1c(F)ccc2cc(O)cc(-c3ncc4c(N5CC6CCC(C5)N6)nc(OC[C@@]56CC(=C)CN5C[C@H]5C[C@H]56)nc4c3F)c12 (single isomer, unassigned)
IC50 [1]: 6 nM
IC50 [2]: 5 nM

C#Cc1c(F)ccc2cc(O)cc(-c3ncc4c(N5CCCCCC5)nc(OCC56CCCN5C[C@H]5C[C@H]56)nc4c3F)c12 (some centres unmarked)
IC50 [4]: 408 nM
IC50 [1]: 264 nM
IC50 [2]: 99 nM
